{"sequences": {"note": "The chains behind the UniProt entries cited, without tags or fusion partners. Where a name states a change or a piece, a line headed by the entry shows the natural chain unless it says otherwise.", "UniProt P51635": "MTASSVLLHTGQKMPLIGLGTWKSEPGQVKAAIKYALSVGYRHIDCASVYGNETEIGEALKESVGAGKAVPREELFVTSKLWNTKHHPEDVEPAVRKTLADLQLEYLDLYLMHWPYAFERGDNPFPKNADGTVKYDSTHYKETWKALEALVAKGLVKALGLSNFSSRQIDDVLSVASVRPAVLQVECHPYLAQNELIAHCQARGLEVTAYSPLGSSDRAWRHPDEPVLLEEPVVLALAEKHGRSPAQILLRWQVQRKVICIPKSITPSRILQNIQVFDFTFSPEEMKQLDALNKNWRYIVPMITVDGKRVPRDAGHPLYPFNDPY"}, "source": "ChEMBL document CHEMBL1129571", "about": "(J Med Chem, 1996)", "key": {"[1]": {"biological_target": "Aldo-keto reductase family 1 member A1 (Rattus norvegicus, UniProt P51635)", "assay": "In vitro inhibitory activity against rat kidney Aldehyde reductase"}, "[2]": {"biological_target": "Aldo-keto reductase family 1 member B1 (Rattus norvegicus, UniProt P07943)", "assay": "In vitro inhibitory activity against partially purified rat lens Aldose reductase at a dose of 5e-7M"}}, "data": [{"smiles": "CCOC(=O)C1=C(O)C(=O)N(Cc2ccccc2)C1", "values": [{"measurement": "IC50", "setting": "[1]", "result": 32, "unit": "µM"}, {"measurement": "IC50", "setting": "[2]", "result": 0.11, "unit": "µM"}]}]}
